# Earlier results as cited in publication PMC6556434 (Nature genetics, 2018).
# System: PHD finger of EBS
# Conditions: cited from earlier work
substance,measurement,value
"H3K4me2: histone H3(1–15) peptide with K4me2, used in ITC and in crystal structure with EBSΔC",binding to the PHD finger of EBS in vitro (in words),bind
